Consider one molecule from PubChem BioAssay AID2696 (Johns Hopkins Ion Channel Center, 2010).

Amino acid sequences for entries named in this document (tags omitted).
UniProt Q61143, whole entry: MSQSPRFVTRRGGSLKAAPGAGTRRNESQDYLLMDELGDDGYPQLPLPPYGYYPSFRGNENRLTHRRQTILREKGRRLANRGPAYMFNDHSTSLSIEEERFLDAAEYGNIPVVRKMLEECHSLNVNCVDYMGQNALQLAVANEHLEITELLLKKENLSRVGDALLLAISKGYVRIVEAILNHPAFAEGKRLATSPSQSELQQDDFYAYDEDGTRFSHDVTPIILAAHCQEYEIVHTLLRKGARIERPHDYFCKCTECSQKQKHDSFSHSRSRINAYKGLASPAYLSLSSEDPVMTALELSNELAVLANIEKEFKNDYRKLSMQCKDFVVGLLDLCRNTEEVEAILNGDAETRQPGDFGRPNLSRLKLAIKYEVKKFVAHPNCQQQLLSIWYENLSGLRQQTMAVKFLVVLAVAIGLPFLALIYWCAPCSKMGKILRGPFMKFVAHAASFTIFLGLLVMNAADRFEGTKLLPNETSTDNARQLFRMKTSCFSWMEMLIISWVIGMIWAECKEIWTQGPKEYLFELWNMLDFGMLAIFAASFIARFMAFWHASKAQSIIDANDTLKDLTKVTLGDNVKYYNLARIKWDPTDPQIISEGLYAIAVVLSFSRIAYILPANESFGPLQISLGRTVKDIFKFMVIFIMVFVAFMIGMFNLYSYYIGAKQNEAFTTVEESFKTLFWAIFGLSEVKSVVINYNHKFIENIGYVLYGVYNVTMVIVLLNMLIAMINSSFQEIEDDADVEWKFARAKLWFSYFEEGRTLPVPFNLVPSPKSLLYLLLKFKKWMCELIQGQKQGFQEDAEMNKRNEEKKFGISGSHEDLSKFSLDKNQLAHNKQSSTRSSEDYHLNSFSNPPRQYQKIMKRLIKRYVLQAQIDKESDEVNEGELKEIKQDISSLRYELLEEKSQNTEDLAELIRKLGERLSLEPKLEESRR

This experiment deals with Short transient receptor potential channel 6 (Mus musculus) (UniProt Q61143). The experiment in a line: TRPC6 inhibitor potency, dose response, cell-based, mouse TRPC6, HEK293, membrane potential (AID 2696). The following applies: TRPC6-expressing cells, fluorescence ratio calcium influx.

Some results for these compounds are left out of this collection, so the calls shown say nothing about other tests.

Broadly, the IC50 is the midpoint of a concentration-inhibition curve. As for `O=C(OC1CN2CCC1CC2)C(CO)(c1ccccc1)c1ccccc1` (stereo unspecified), the IC50 was 350 nM.
